Experimental data published in patent US20200330484A1, “STEROIDAL COMPOUNDS FOR TREATMENT OF MENTAL AND NEUROLOGICAL DISORDERS” (USTAV ORGANICKE CHEMIE A BIOCHEMIE AV CR, V.V.I., priority 2017, published 2020).

By UniProt entry, the sequences of proteins in these tests, tags left out. Residues count along the entry.
UniProt Q13224, 27-1484 W607C: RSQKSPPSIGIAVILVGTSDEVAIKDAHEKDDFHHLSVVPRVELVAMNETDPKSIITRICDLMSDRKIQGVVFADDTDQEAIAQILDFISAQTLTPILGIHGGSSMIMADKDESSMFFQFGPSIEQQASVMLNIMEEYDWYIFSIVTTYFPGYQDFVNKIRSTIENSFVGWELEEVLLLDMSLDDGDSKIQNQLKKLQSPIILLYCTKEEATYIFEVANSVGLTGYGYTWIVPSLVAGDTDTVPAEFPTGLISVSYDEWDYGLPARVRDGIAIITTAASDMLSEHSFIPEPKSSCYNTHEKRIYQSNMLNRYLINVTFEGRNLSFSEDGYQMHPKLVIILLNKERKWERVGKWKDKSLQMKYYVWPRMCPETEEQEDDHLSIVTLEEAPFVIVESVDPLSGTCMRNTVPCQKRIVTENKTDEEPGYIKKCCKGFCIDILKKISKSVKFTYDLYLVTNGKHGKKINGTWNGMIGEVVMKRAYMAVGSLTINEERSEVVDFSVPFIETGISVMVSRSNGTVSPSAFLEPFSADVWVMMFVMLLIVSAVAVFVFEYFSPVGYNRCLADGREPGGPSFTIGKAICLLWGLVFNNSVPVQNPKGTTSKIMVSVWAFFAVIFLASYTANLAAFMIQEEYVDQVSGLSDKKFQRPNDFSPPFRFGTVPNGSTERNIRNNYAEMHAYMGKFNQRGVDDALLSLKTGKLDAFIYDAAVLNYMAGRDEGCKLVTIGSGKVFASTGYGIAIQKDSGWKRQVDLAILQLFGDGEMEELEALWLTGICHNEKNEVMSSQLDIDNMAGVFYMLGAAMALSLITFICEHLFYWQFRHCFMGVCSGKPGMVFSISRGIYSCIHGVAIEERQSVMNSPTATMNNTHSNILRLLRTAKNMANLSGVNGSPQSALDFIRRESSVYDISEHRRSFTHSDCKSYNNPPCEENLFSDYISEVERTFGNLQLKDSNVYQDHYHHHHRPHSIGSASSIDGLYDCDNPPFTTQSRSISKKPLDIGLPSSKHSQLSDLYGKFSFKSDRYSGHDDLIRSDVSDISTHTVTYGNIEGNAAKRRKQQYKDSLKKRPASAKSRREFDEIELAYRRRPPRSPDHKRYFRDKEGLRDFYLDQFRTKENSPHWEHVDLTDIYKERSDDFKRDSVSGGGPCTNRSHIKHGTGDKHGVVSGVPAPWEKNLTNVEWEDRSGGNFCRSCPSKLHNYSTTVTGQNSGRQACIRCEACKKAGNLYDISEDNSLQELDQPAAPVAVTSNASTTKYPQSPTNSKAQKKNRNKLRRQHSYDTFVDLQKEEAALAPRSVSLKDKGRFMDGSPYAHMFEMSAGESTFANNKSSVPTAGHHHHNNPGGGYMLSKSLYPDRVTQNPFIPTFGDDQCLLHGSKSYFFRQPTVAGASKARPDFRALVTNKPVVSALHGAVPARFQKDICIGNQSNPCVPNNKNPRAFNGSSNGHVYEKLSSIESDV

Target: T1, hGluN1/hGluN2B(W607C) receptors (Homo sapiens, UniProt Q05586+Q13224, W607C)
T1 construct: The amino acids are numbered on the basis of the full-length protein, including the signal peptide; expressed in transfected cells; host or cells: HEK293T
Assay: Whole-cell patch clamp, steroid potentiation of responses tonically activated by low concentration of glutamate
Format: cell-based
Conditions: HEK293T, mean ± SEM
Description: Human embryonic kidney-293T (HEK293T) cells were used for transfection of human genes encoding for NMDA receptor subunits: hGluN1 (GenBank, accession number NP_015566) and hGluN2B (GenBank, accession number NP_000825). Equal amounts ([…]) of DNA encoding for GluN1 and GluN2B were mixed with 0.9 μl Matra-A Reagent (IBA, Gottingen, Germany) and added to confluent HEK293T cells. After trypsinization, the cells were resuspended in Opti-MEM I (ThermoFisher Scientific, Paisley, UK; Cat. #31985062) containing 1% fetal bovine serum supplemented with 15 mmol·l^−1 MgCl2, 1 mmol·l^−1 D,L-2-amino-5-phosphonopentanoic acid (D,L-AP5), and 1 μmol.l^−1 ketamine.
Mutations in the GluN2B subunit were made using the QuickChange Site-Directed Mutagenesis Kit (Agilent Technologies, Santa Clara, Calif., USA) according to the manufacturer's instructions. Mutated cDNA was transformed into ultra-competent XL1Gold E. coli cells, multiplied, positive clones were selected, and the isolated plasmide DNA was verified by sequencing (SEQme s.r.o., Dobris, Czechia, or GATC Biotech AG, Constance, Germany) All mutations were verified by DNA sequencing. Transfected HEK293T cells were identified by GFP epifluorescence. The amino acids are numbered on the basis of the full-length protein, including the signal peptide.
Experiments were performed 12-36 h after the end of transfection on cultured HEK293T cells transfected with vectors containing hGluN1/hGluN2B/GFP. Whole-cell voltage clamp current recordings were performed at room temperature (21-25° C.) at a holding potential of −60 mV using a patch-clamp amplifier (Axopatch 200B; Molecular Devices, Sunnyvale, Calif., USA) after a capacitance and series resistance (<10 MΩ) compensation of 80-90%. Data were collected (low-pass filtered at 2 kHz and sampled at 10 kHz) and analyzed using pClamp 10 (Molecular Devices). […]

20-oxo-pregn-5-en-3β-yl sulfate [PE-S]
Potentiating effect (%) (PE-S 100 μmol · l^−1): 73 ± 16 (8)^†; %

C[C@@]12CCC[C@H]1[C@@H]1CC=C3C[C@@H](OC(=O)CCC(=O)O)CC[C@]3(C)[C@H]1CC2 [AE-hSuc, androst-5-en-3β-yl hemisuccinate]
Potentiating effect (%) (AE-hSuc 30 μmol · l^−1): 406 ± 49 (8)^††; %

CC(=O)[C@H]1CC[C@H]2[C@@H]3CC[C@@H]4CC(=CC=CC(=O)O)CC[C@]4(C)[C@H]3CC[C@]12C [PA-But, 20-oxo-5β-pregnan-3-ylidene-4′-but-2-enoic acid]
Potentiating effect (%) (PA-But 15 μmol · l^−1): 160 ± 24 (3)^††; %
